target: Recombinant human cathepsin S (CatS) (Homo sapiens, UniProt P25774); assay: biochemical

The chains behind the UniProt entries cited, without tags or fusion partners. Residues count along the entry.
UniProt P25774, 115-331: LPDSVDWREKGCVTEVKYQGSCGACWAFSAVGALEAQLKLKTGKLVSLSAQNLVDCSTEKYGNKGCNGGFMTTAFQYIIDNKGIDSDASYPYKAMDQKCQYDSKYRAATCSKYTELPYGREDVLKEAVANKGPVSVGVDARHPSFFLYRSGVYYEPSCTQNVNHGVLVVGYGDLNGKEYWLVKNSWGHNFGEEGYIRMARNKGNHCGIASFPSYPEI

First: O=C(CC1CCNCC1)N1CCc2c(c(-c3ccc(C(F)(F)F)c(SCCN4CCC(F)CC4)c3)nn2CC(O)CN2CCCCC2)C1 (stereo not shown) [Example 627, 1-{3-[3-{[2-(4-Fluoropiperidin-1-yl)ethyl]sulfanyl}-4-(trifluoromethyl)phenyl]-5-(piperidin-4-ylacetyl)-4,5,6,7-tetrahydro-1H-pyrazolo[4,3-c]pyridin-1-yl}-3-piperidin-1-ylpropan-2-ol]
Second: O=C(CO)N1CCc2c(c(-c3ccc(C(F)(F)F)c(SCCN4CCC(F)(F)C4)c3)nn2CC(O)CN2CCOCC2)C1 (stereo not shown) [Example 355, 1-{3-[3-{[2-(3,3-Difluoropyrrolidin-1-yl)ethyl]sulfanyl}-4-(trifluoromethyl)phenyl]-5-(hydroxyacetyl)-4,5,6,7-tetrahydro-1H-pyrazolo[4,3-c]pyridin-1-yl}-3-morpholin-4-ylpropan-2-ol]
The IC50 of the first is 2.4-fold higher: 500 nM for the first, 210 nM for the second.

First: CS(=O)(=O)N1CCc2c(c(-c3ccc(C(F)(F)F)c(SCCN4CC[C@H](F)C4)c3)nn2C[C@@H](O)CN2CCC(c3ccccn3)CC2)C1 [Example 286]
Second: CS(=O)(=O)NCCSc1cc(-c2nn(CC(O)CN3CCC(c4ccccn4)CC3)c3c2CN(S(C)(=O)=O)CC3)ccc1C(F)(F)F (stereo not shown) [Example 690, N-(2-{[5-{1-[2-Hydroxy-3-(4-pyridin-2-ylpiperidin-1-yl)propyl]-5-(methylsulfonyl)-4,5,6,7-tetrahydro-1H-pyrazolo[4,3-c]pyridin-3-yl}-2-(trifluoromethyl)phenyl]sulfanyl}ethyl)methanesulfonamide]
The IC50 of the first is 4-fold higher: 40 nM for the first, 10 nM for the second.

Going from CS(=O)(=O)N1CCc2c(c(-c3ccc(C(F)(F)F)c(SCCN4CCCC(F)C4)c3)nn2C[C@@H](O)CN2CC3CCCC3C2)C1 (stereo partly drawn) [Example 550, (2S)-1-{3-[3-{[2-(3-Fluoropiperidin-1-yl)ethyl]sulfanyl}-4-(trifluoromethyl)phenyl]-5-(methylsulfonyl)-4,5,6,7-tetrahydro-1H-pyrazolo[4,3-c]pyridin-1-yl}-3-(hexahydrocyclopenta[c]pyrrol-2(1H)-yl)propan-2-ol] to CC(C)(C)C1CCN(CC(O)Cn2nc(-c3ccc(C(F)(F)F)c(SCCN4CCOCC4)c3)c3c2CCN(S(C)(=O)=O)C3)CC1 (stereo not shown) [Example 178, 1-[4-(1,1-Dimethylethyl)piperidin-1-yl]-3-[5-(methylsulfonyl)-3-{3-[(2-morpholin-4-ylethyl)sulfanyl]-4-(trifluoromethyl)phenyl}-4,5,6,7-tetrahydro-1H-pyrazolo[4,3-c]pyridin-1-yl]propan-2-ol], the IC50 falls from 220 nM to 130 nM (1.7-fold). The second is the more potent here.

Going from N#Cc1cccc(C2CCN(C[C@H](O)Cn3nc(-c4ccc(C(F)(F)F)c(SCCN5CCC(F)CC5)c4)c4c3CCNC4)CC2)c1 [Example 536, 3-{1-[(2S)-3-{3-[3-{[2-(4-Fluoropiperidin-1-yl)ethyl]sulfanyl}-4-(trifluoromethyl)phenyl]-4,5,6,7-tetrahydro-1H-pyrazolo[4,3-c]pyridin-1-yl}-2-hydroxypropyl]piperidin-4-yl}benzonitrile] to CS(=O)(=O)N1CCc2c(c(-c3ccc(C(F)(F)F)c(SCCN4CCC(F)CC4)c3)nn2CC(O)CN2CCN(c3ccccc3O)CC2)C1 (stereo not shown) [Example 791, 2-[4-(3-{3-[3-{[2-(4-Fluoropiperidin-1-yl)ethyl]sulfanyl}-4-(trifluoromethyl)phenyl]-5-(methylsulfonyl)-4,5,6,7-tetrahydro-1H-pyrazolo[4,3-c]pyridin-1-yl}-2-hydroxypropyl)piperazin-1-yl]phenol], the IC50 falls from 200 nM to 25 nM (8-fold). The second is the more potent here.

Compared with CS(=O)(=O)N1CCc2c(c(-c3ccc(C(F)(F)F)c(SCCN4CCCCC4)c3)nn2CCCN2CCCC2)C1 [Example 57, 5-Methanesulfonyl-3-[3-(2-piperidin-1-yl-ethylsulfanyl)-4-trifluoromethyl-phenyl]-1-(3-pyrrolidin-1-yl-propyl)-4,5,6,7-tetrahydro-1H-pyrazolo[4,3-c]pyridine], CC1(C)CCCN(CCSc2cc(-c3nn(CCCN4CCC(N5CCCC5=O)CC4)c4c3CN(S(C)(=O)=O)CC4)ccc2C(F)(F)F)C1 [Example 738, 1-[1-(3-{3-[3-{[2-(3,3-Dimethylpiperidin-1-yl)ethyl]sulfanyl}-4-(trifluoromethyl)phenyl]-5-(methylsulfonyl)-4,5,6,7-tetrahydro-1H-pyrazolo[4,3-c]pyridin-1-yl}propyl)piperidin-4-yl]pyrrolidin-2-one] is 3.7-fold lower in IC50: 520 nM for the first, 140 nM for the second. The second is the more potent here.

Compared with CS(=O)(=O)N1CCc2c(c(-c3ccc(C(F)(F)F)c(SCCN4CCCCC4)c3)nn2CC(O)CN2CCN(c3ccccc3O)CC2)C1 (stereo not shown) [Example 718, 2-(4-{2-Hydroxy-3-[5-(methylsulfonyl)-3-{3-[(2-piperidin-1-ylethyl)sulfanyl]-4-(trifluoromethyl)phenyl}-4,5,6,7-tetrahydro-1H-pyrazolo[4,3-c]pyridin-1-yl]propyl}piperazin-1-yl)phenol], CS(=O)(=O)N1CCc2c(c(-c3ccc(C(F)(F)F)c(SCCN4CCC(O)(c5ccccn5)CC4)c3)nn2C[C@@H](O)CN2CCCCC2)C1 [Example 222, 1-(2-{[5-{1-[(2S)-2-Hydroxy-3-piperidin-1-ylpropyl]-5-(methylsulfonyl)-4,5,6,7-tetrahydro-1H-pyrazolo[4,3-c]pyridin-3-yl}-2-(trifluoromethyl)phenyl]sulfanyl}ethyl)-4-pyridin-2-ylpiperidin-4-ol] is 64-fold higher in IC50: 15 nM for the first, 960 nM for the second. The first is the more potent here.

First: CC1(O)CCN(C[C@H](O)Cn2nc(-c3ccc(C(F)(F)F)c(SCCN4CCC(F)(F)CC4)c3)c3c2CCN(S(C)(=O)=O)C3)CC1 [Example 632, 1-[(2S)-3-{3-[3-{[2-(4,4-Difluoropiperidin-1-yl)ethyl]sulfanyl}-4-(trifluoromethyl)phenyl]-5-(methylsulfonyl)-4,5,6,7-tetrahydro-1H-pyrazolo[4,3-c]pyridin-1-yl}-2-hydroxypropyl]-4-methylpiperidin-4-ol]
Second: CS(=O)(=O)N1CCc2c(c(-c3ccc(C(F)(F)F)c(SCCNC4CCCC4)c3)nn2CC(O)CN2CCC(O)(c3ccccn3)CC2)C1 (stereo not shown) [Example 716, 1-(3-{3-[3-{[2-(Cyclopentylamino)ethyl]sulfanyl}-4-(trifluoromethyl)phenyl]-5-(methylsulfonyl)-4,5,6,7-tetrahydro-1H-pyrazolo[4,3-c]pyridin-1-yl}-2-hydroxypropyl)-4-pyridin-2-ylpiperidin-4-ol]
The IC50 of the first is 2.7-fold higher: 160 nM for the first, 60 nM for the second. The second is the more potent here.

First: CC(C)(C)OC(=O)N1CCC(C(=O)NCCSc2cc(-c3nn(CC(O)CN4CCC(N5CCCC5=O)CC4)c4c3CN(S(C)(=O)=O)CC4)ccc2C(F)(F)F)C1 (stereo not shown) [Example 123, 3-{2-[5-(1-{2-Hydroxy-3-[4-(2-oxo-pyrrolidin-1-yl)-piperidin-1-yl]-propyl}-5-methanesulfonyl-4,5,6,7-tetrahydro-1H-pyrazolo[4,3-c]pyridin-3-yl)-2-trifluoromethyl-phenylsulfanyl]-ethylcarbamoyl}-pyrrolidine-1-carboxylic acid tert-butyl ester]
Second: CS(=O)(=O)N1CCc2c(c(-c3ccc(C(F)(F)F)c(SCC(=O)N4CC[C@H](O)C4)c3)nn2CC(O)CN2CCC(NC(=O)CO)CC2)C1 (stereo partly drawn) [Example 695, 2-Hydroxy-N-[1-(2-hydroxy-3-{3-[3-({2-[(3S)-3-hydroxypyrrolidin-1-yl]-2-oxoethyl}sulfanyl)-4-(trifluoromethyl)phenyl]-5-(methylsulfonyl)-4,5,6,7-tetrahydro-1H-pyrazolo[4,3-c]pyridin-1-yl}propyl)piperidin-4-yl]acetamide]
The IC50 of the first is 2.7-fold higher: 230 nM for the first, 85 nM for the second.

Reference: patent US20090099157A1, “TETRAHYDRO-PYRAZOLO-PYRIDINE THIOETHER MODULATORS OF CATHEPSIN S” (priority 2007, published 2009)
